Tested on: A/PR/8/34 strain of influenza A virus (H1N1)
Format: cell-based

SMILES: COc1cc(-c2ccnc3c2c(C)nn3-c2cccc(C(F)(F)F)c2)ccc1O [Compound 33]
- dose response in the TCID50 assay: successfully decreased viral titer with increasing concentration

Source: publication PMC8290212 (Bioorganic & medicinal chemistry letters, 2019)
